# Earlier results as cited in patent US20160304912A1, “A PROCESS FOR PREPARING SUCCINATE ESTER” (MYRIANT CORPORATION, priority 2013, published 2016).
# Settings: at 25 C
substance,measurement,value
ammonium dihydrogen phosphate [ADP],solubility in water,~55%
